Screening data as filed in PubChem BioAssay.
miR-21 reporter – miR-21 reporter, rising signal; Potency, µM (titrated, usually from 38.3 µM), without a hit: at the highest dose reporter change, positive = more light; AID 2288; 340,000 tested, under 10 active; HeLa miR-21 FLuc reporter, luciferase, 48 h; active = well fitted rising curve with a large enough effect; inconclusive = small, poorly fitted or top-dose-only effect; inactive = no such curve, though single readings can be large or run the other way;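 note: % of control where 0% means no effect; miR-21 action dims this reporter so a rising signal means less miR-21 action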
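Luminescence from a firefly luciferase reporter carrying a miR-21 binding site downstream, stably expressed under a CMV promoter in HeLa cells that make miR-21 endogenously, reports miRNA modulation after 48 h compound exposure up to approximately 40uM final.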
TrxR1 substrate – is turned over as a substrate by rat TrxR1. purified TrxR1 substrate turnover, NADPH consumption readout. 390,000 compounds, 0.01% hits. Potency, µM (series often up to 114 µM), inactives show top-dose activity change, negative = substrate turnover. AID 588456. O89049; also: potency is read from the fitted curve at half-maximal effect; % is scaled to controls: 0 for no effect and ±100 for the full control effect; nearly all actives have a fitted effect of over 50% in size
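Rat TrxR1, dispensed at 90 nM, was prereduced with 400 uM NADPH (final) for 5 min at ~22 deg C, then incubated with compound 15 min before 400 uM selenite. A first-read NADPH fluorescence drop versus no-compound background flagged substrates.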
rTrxR1 inhibitor – rat TrxR1 inhibition. O89049. recombinant rTrxR1, NADPH fluorescence consumption, selenite substrate. Potency, µM (doses to about 114 µM), for the others: at the top dose activity change, negative = inhibition, actives largely listed as inhibitors. 390,000 compounds, 1% hits; also: potency is read from the fitted curve at half-maximal effect; % is scaled to controls: 0 for no effect and ±100 for the full control effect; nearly all actives have a fitted effect of over 65% in size
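Rat TrxR1 (90 nM in the dispensed reagent) was pre-reduced with 400 uM NADPH for 5 min at room temperature, then incubated with compound for 15 min. After 400 uM selenite was added, NADPH fluorescence (Ex 340/Em 450 nm) was followed for 8 min.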
Apoferritin bind – binds horse apoferritin like a general anesthetic. AID 485281. 350,000 compounds, 0.074% hits. P02791. Potency, µM (doses to about 77.5 µM), without a hit: at the top dose activity change, negative = displacement, most hits filed as inhibitors. apoferritin/1-aminoanthracene competitive binding, fluorescence; also: potency is read from the fitted curve at half-maximal effect; % is scaled to controls: 0 for no effect and ±100 for the full control effect; nearly all actives have a fitted effect of over 20% in size
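In PBS, apoferritin at 10 uM is loaded with 1-AMA from a 50% saturated solution. After 10 min of compound exposure at ambient temperature, reduced 535 nm fluorescence indicates probe displacement.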
ClpP mod – qHTS Assay for Activators of ClpP | ATP-dependent Clp protease proteolytic subunit (Bacillus subtilis (strain 168)), P80244 | purified B. subtilis ClpP, FRET peptide cleavage, 20 min | Potency, µM (doses to about 57.5 µM), for inactives: at the highest dose activity change, negative = active | 340,000 compounds, 1.9% hits | AID 651965, 2013; active = well fitted falling curve with a large enough effect; inconclusive = small, poorly fitted or top-dose-only effect; inactive = no such curve, though single readings can be large or run the other way; also: potency is read from the fitted curve at half-maximal effect; the source files actives as falling curves though it sought activators and does not explain the sign; nearly all actives have a fitted effect of over 65% in size
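ClpP 10 microg/mL final, pH 8 Tris/KCl buffer with BSA, glycerol, Tween-20; compound pinned in; FRET-FV substrate; RT 20 min; Ex320/Em430; ΔFRET vs ADEP 5.8 microM, DMSO, no enzyme.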
Active calls of the source: *; ? = inconclusive; . = not tested or not shown; [ ] = dose if it differs, or a comment. Compounds with a hit are over-represented: about 2.5% of the library has one in this group of screens. Unless noted, calls follow the shape of the dose curve; as a rule, active = well fitted curve in the direction sought with a large enough effect; inconclusive = small, poorly fitted or top-dose-only effect, or another doubt; inactive = no such curve, though single readings can be large; an effect the other way counts as inactive or inconclusive.

SMILES,TrxR1 substrate,ClpP mod,rTrxR1 inhibitor,miR-21 reporter,Apoferritin bind
Cc1cc(C)c2[nH]c(=O)c(C(c3nnnn3C(C)(C)C)N3CCN(C(=O)c4ccco4)CC3)cc2c1 (configuration not stated),17.5%,?,15.8µM*,-1.8%,-14.2%
Cc1ccc2[nH]c(=O)c(C(c3nnnn3CC3CCCO3)N3CCCc4ccccc43)cc2c1 (configuration not stated),-5.9%,-3.7%,-1.5%,1.1%,-19.7%
Cc1ccc(OCC(=O)NCC2(N3CCOCC3)CCCCC2)cc1C,-6.6%,-1.7%,-0.3%,?,-13.0%
CC(C)c1nn2c(=O)cc(COC(=O)c3cccc(NC(=O)c4ccccc4F)c3)nc2s1,-2.9%[57.1 µM],-4.8%,6.5%[57.1 µM],1.1%,34.2%
CCOC(=O)c1cnn2c(C(F)(F)F)cc(-c3ccc(Br)cc3)nc12,13.8%[57.1 µM],-4.8%,8.2%[57.1 µM],-0.3%,4.3%
CN[C@@H](CCCN=C(N)N)C(=O)N[C@@H](CCCCN)C(=O)N1CCC[C@H]1C(=O)N[C@@H](Cc1c[nH]c2ccccc12)C(=O)N[C@H](C(=O)N[C@H](CC(C)C)C(=O)O)C(C)(C)C,.,.,.,.,-9.9%
Cc1cc(C)c2[nH]c(=O)c(C(c3nnnn3CC3CCCO3)N3CCC(C)CC3)cc2c1 (configuration not stated),7.2%[57.1 µM],-3.1%,20µM*,2.8%,?
O=C(COC(=O)c1ccc([N+](=O)[O-])o1)Nc1ccc2c(c1)OCO2,5.3%[57.1 µM],-0.3%,17.8µM*,.,.
O=C(COC(=O)c1ccc([N+](=O)[O-])o1)Nc1ccc2c(c1)OC(F)(F)O2,.,0.7%,.,.,.
O=C(NCc1ccc(F)cc1)c1ccc(NC(=O)N2CC3CCCN3c3ccccc32)cc1 (configuration not stated),-5.7%,-7.9%,-3.0%,2.3%,41.5%
CCc1ccc(C(=O)c2cn(CC(=O)NCc3ccc(C)cc3)c3nc(C)ccc3c2=O)cc1,-2.6%[57.1 µM],-2.6%,8.0%[57.1 µM],3.6%,-4.0%
COc1cc(C(=O)NNC(=O)/C=C/c2ccco2)cc(OC)c1OC,-5.4%,2.7%,56.2µM*,.,.
COc1ccccc1NC(=O)/C=C\c1ccco1,-3.5%,-0.3%,3.55µM*,-44.6%,1.6%
O=C(/C=C/c1ccco1)NC(=S)Nc1cc(-c2nc3ccccc3s2)ccc1Cl,-9.4%,0.9%,50.1µM*,-41.4%,40.2%
COc1cc(C(=O)NNC(=O)c2ccco2)cc(OC)c1OC,3.6%,.,13.8%,5.3%,-3.4%
Cc1ccccc1NC(=S)NC(=O)/C=C/c1ccco1,4.8%,-2.5%,15.8µM*,-4.2%,-18.6%
CCOc1ccc(NC(=O)Cn2c(=O)n(CCc3ccccc3)c(=O)c3c4c(sc32)CN(C(C)=O)CC4)cc1,-1.2%,-0.4%,10.1%,3.1%,37.8%
CCc1ccc(CNC(=O)CCSCc2ccccc2F)cc1,0.6%[57.1 µM],-2.7%,9.4%[57.1 µM],-3.4%,?
COc1ccccc1NC(=S)NC(=O)/C=C/c1ccco1,-2.6%,1.1%,20µM*,-4.7%,-1.0%
COc1cc2c(cc1NC(=S)NC(=O)/C=C/c1ccco1)oc1ccccc12,-1.0%,.,13.4%,-2.3%,-9.9%
COc1cc(NS(=O)(=O)c2ccc(NC(=S)NC(=O)c3ccc(F)cc3)cc2)nc(OC)n1,0.1%,.,?,-22.3%,-4.5%
COc1cc(NS(=O)(=O)c2ccc(NC(=S)NC(=O)c3ccco3)cc2)ncn1,-2.1%[57.1 µM],.,-8.4%[57.1 µM],-8.5%,-4.5%
COc1ccc(C(=O)NC(=S)Nc2ccc(S(=O)(=O)Nc3cc(OC)nc(OC)n3)cc2)cc1,-2.7%,.,56.2µM*,-21.5%,0.8%
COc1ccc(C(=O)NC(=S)Nc2ccc(S(=O)(=O)Nc3cc(OC)ncn3)cc2)cc1,-9.1%,.,44.7µM*,5.5%,5.8%
CCOc1ccccc1C(=O)N(Cc1ccco1)Cc1ccccc1F,-1.6%,0.0%,19.6%,16.3%,-8.4%
O=C(NCCC1=CCCCC1)c1ccc2c(=O)n3nc(Nc4ccccc4)sc3nc2c1,0.5%[57.1 µM],-1.5%,27.7%[57.1 µM],9.4%,-13.4%
COc1cc(CN(C(=O)Nc2cccc(Cl)c2)c2ccccn2)cc(OC)c1OC,-1.1%,-0.4%,30.6%,-7.7%,-1.2%
O=C1Nc2ccc(S(=O)(=O)NCc3ccco3)c3cccc1c23,9.1%,-18.7%,44.7µM*,.,.
Cc1ccc(S(=O)(=O)C(CNC(=O)c2ccccc2F)c2cccs2)cc1 (configuration not stated),3.9%[57.1 µM],-4.9%,19.9%[57.1 µM],-7.6%,0.2%
CCOC(=O)C1C(=O)C(C(=O)OCC)C(c2cccnc2)NC1c1cccnc1 (configuration not stated),22.3%[57.1 µM],-0.8%,3.16µM*,-0.8%,54.9%

The last five records of the section before are carried over, then new ones follow.
SMILES,TrxR1 substrate,ClpP mod,rTrxR1 inhibitor,miR-21 reporter,Apoferritin bind
O=C(NCCC1=CCCCC1)c1ccc2c(=O)n3nc(Nc4ccccc4)sc3nc2c1,0.5%[57.1 µM],-1.5%,27.7%[57.1 µM],9.4%,-13.4%
COc1cc(CN(C(=O)Nc2cccc(Cl)c2)c2ccccn2)cc(OC)c1OC,-1.1%,-0.4%,30.6%,-7.7%,-1.2%
O=C1Nc2ccc(S(=O)(=O)NCc3ccco3)c3cccc1c23,9.1%,-18.7%,44.7µM*,.,.
Cc1ccc(S(=O)(=O)C(CNC(=O)c2ccccc2F)c2cccs2)cc1 (configuration not stated),3.9%[57.1 µM],-4.9%,19.9%[57.1 µM],-7.6%,0.2%
CCOC(=O)C1C(=O)C(C(=O)OCC)C(c2cccnc2)NC1c1cccnc1 (configuration not stated),22.3%[57.1 µM],-0.8%,3.16µM*,-0.8%,54.9%
O=C(Nc1ccc(OCc2cc(=O)n3ccccc3n2)cc1)c1ccccc1Cl,-6.1%[57.1 µM],-3.8%,0.3%[57.1 µM],1.6%,-3.3%
CCOC(=O)C(=Cc1ccccc1)C(=O)OCC,.,.,.,.,-6.8%
CCOC(=O)C(=Cc1ccc(-n2cncn2)cc1)C(=O)OCC,4.5%,.,22.4µM*,?,-3.6%
CCCN(C(=O)Cn1ncc2c([nH]c3ccccc32)c1=O)c1ccc(F)cc1,-6.3%,4.4%,13.4%,14.6%,-7.1%
Cc1cc(-c2ccccc2)[nH]c(=O)c1S(=O)(=O)c1ccc(Cl)cc1,100.3%,?,48.7%,0.3%,-1.0%
Cc1cc(-c2ccccc2)[nH]c(=O)c1S(=O)(=O)c1ccccc1,18.9%,14.1µM*,?,8.9%,?
COCCn1cc(C(=O)N2CCN(C)CC2)c2c3ccccc3n(C)c2c1=O,138.5%,11.2µM*,33.8%,-7.2%,-8.2%
CCOC(=O)N1CCN(C(=O)c2cn(CCOC)c(=O)c3c2c2ccccc2n3C)CC1,83.3%,14.1µM*,-6.9%,-9.5%,-6.8%
COCCn1cc(C(=O)NCCN(C)C)c2c3ccccc3n(C)c2c1=O,39.6%,4.5%,-18.9%,-2.4%,-3.2%
COc1ccc(N2CCN(C(=O)c3cn(CC(C)C)c(=O)c4c3c3ccccc3n4C)CC2)cc1,-4.3%,-23.2%,-2.8%,15.8%,105.6%
COc1ccccc1N1CCN(C(=O)c2cn(CC(C)C)c(=O)c3c2c2ccccc2n3C)CC1,6.9%,3.8%,-1.3%,3.7%,5.9%
COCCn1cc(C(=O)NCc2cccs2)c2c3ccccc3n(C)c2c1=O,30.2%,20µM*,8.3%,0.3%,-4.8%
O=C(COCc1cc(-c2cccs2)on1)Nc1cccc(Cl)c1Cl,-8.3%,-5.4%,11.0%,-2.4%,2.8%
CN1/C(=C\C(=O)COC(=O)c2ccco2)C(C)(C)c2ccccc21,4.6%,-28.9%,18.3%,-2.6%,6.9%
CN1/C(=C/C(=O)c2nc(S(C)(=O)=O)ncc2Cl)C(C)(C)c2ccccc21,-9.1%,1.1%,50.1µM*,?,?
CN1/C(=C\C(=O)c2ccco2)C(C)(C)c2ccccc21,2.4%[57.1 µM],-1.6%,10µM*,?,-20.9%
